# Source: PubChem BioAssay (Tox21)
# This is a selection; strong and weak results do not stand in their true shares. Records with an inconclusive call do not appear. Calls of active or inactive are those of the source. The call rests on the fitted dose curve; in most records, active means well fitted activation curve with a large enough effect in the repeat runs; inconclusive means weak or mixed curves; inactive means flat fitted curve, though single readings scatter.
# Test: A CellTox Green Cytotoxicity Assay to monitor cytotoxicity in HepG2 cells - 32 hour (AID 1224883); further: nearly all actives have a fitted effect of over 50% in size
# Settings: CellTox Green fluorescence; series mostly up to 76.8 µM; cytotoxicity increase: at the top concentration
# Text: National Center for Advancing Translational Sciences [NCATS]
# NIH Chemical Genomics Center [NCGC]
# U.S. Environmental Protection Agency [EPA]
# National Institutes of Environmental Health Sciences [NIEHS]
# National Toxicology Program [NTP]
# Cell-based models are critical for drug discovery. Determining the natural cytotoxic effects resulting from test compounds is an essential research activity. A CellTox Green Cytotoxicity Assay to monitor cytotoxicity in real time of continues cell culture during 40 hours of the compound treatment was used to screen Tox21 10K library compounds in HepG2 cells. CellTox Green Cytotoxicity Assay is a nonlytic, homogeneous, biofluorescent method to measure cytotoxicity in cell culture after experimental manipulation. The assay system uses a proprietary asymmetric cyanine dye that is excluded from viable cells but preferentially stains the dead cell's DNA. […] Viable cells produce no appreciable increases in fluorescence. Therefore, the fluorescence signal produced by the binding interaction with dead cell DNA is proportional to cytotoxicity.
# The mixture of HepG2 cell suspension and reagents were dispensed at 600cells/6 ul/well in 1536-well tissue culture treated black solid bottom plates using a Multidrop dispenser. After the assay plates were incubated at a 37 C/5% CO2 incubator for 5 hours, 23 nL of compounds dissolved in DMSO, positive and negative controls was transferred to the assay plate by a pintool work station. The plates were incubated at 37 C for 40 hours. The fluorescence intensity were measured at 0h, 8h, 16h, 24h, 32h and 40h time points using ViewLux plate reader during compound treatment.
# On the % scale 0 is the no-effect control and ±100 the full control effect; potency means the concentration at half of the fitted maximal effect.
Compound,cytotoxicity increase,Potency
O=C(Cl)Oc1ccccc1,inactive: -7.04%,–
CN(C(=O)Cc1ccc(Cl)c(Cl)c1)[C@H]1CC[C@@]2(CCCO2)C[C@@H]1N1CCCC1,inactive: 3.9% [at 35.3 µM],–
O=[N+]([O-])c1ccc(S(=O)(=O)O)c([N+](=O)[O-])c1,inactive: -8.04%,–
O=[N+]([O-])c1ccc([N+](=O)[O-])cc1,inactive: -31.6%,–
O=[p+]1oc2ccccc2c2ccccc21 (centres undefined),inactive: 6.7%,–
CN(C(=O)Cc1ccccc1)[C@H]1CC[C@@]2(CCCO2)C[C@@H]1N1CCCC1,inactive: 22.3% [at 35.3 µM],–
CCCCOP(OCCCC)OCCCC,inactive: -17.3%,–
CCC(C)(OOC(C)(C)C)OOC(C)(C)C,inactive: -23.7% [at 15.8 µM],–
Cc1cc([N+](=O)[O-])c(O)c([N+](=O)[O-])c1,inactive: -9.38%,–
O=P(Cl)(Cl)c1ccccc1,inactive: -11.8%,–
CC(C)CCCCCCCOP(OCCCCCCCC(C)C)Oc1ccccc1,–,active: 61.6 µM
NC(=O)Nc1ccc([As](=O)(O)O)cc1,–,inactive
ClP(Cl)c1ccccc1,inactive: -12.3%,–
CCNC(C)Cc1ccc2c(c1)OCO2 (centres undefined),inactive: 0.262%,–
CCCCC(CC)CO[P+](=O)OCC(CC)CCCC (centres undefined),inactive: 5.65%,–
O=[P+](Oc1ccccc1)Oc1ccccc1,inactive: -3.43%,–
CN(C(=O)Cc1cccc2occc12)[C@H]1CC[C@@]2(CCCO2)C[C@@H]1N1CCCC1,inactive: -2.01%,–
O=P(Cl)(Oc1ccccc1)Oc1ccccc1,inactive: -8.65%,–
CC(C)OP(=S)(OC(C)C)SCCNS(=O)(=O)c1ccccc1,inactive: 1.91%,–
COC(=O)Cl,inactive: -3.08%,–
CN(N=O)C(=N)N[N+](=O)[O-],inactive: 8.9%,–
CCCCO[P+](=O)OCCCC,–,inactive
O=C(Cl)OCCOC(=O)Cl,inactive: -6.49%,–
CCOP(=S)(CC)Sc1ccccc1 (centres undefined),inactive: -7.12%,–
